{"sequences": {"note": "Amino acid sequences for entries named in this document (tags omitted). A change or cut given only in a name is not applied to a line headed by its entry.", "UniProt P28523": "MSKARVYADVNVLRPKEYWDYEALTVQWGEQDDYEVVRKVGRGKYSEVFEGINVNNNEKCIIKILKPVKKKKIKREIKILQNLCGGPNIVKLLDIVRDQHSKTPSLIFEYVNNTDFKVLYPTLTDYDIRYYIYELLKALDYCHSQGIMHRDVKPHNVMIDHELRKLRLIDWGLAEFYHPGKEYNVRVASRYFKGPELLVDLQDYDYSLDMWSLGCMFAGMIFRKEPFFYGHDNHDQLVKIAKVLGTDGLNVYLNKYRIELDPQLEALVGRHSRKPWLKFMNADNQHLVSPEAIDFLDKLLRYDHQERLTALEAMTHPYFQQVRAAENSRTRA"}, "source": "ChEMBL document CHEMBL1143858", "about": "“Structure-based design and synthesis of novel macrocyclic pyrazolo[1,5-a] [1,3,5]triazine compounds as potent inhibitors of protein kinase CK2 and their anticancer activities” (Bioorg Med Chem Lett, 2008)", "target": "Casein kinase II subunit alpha (Zea mays, UniProt P28523)", "assay": "Inhibition of corn CK2", "data": [{"smiles": "O=C1CCCCc2cnn3c(NC4CC4)nc(nc23)Nc2cccc(c2)N1", "values": [{"measurement": "Ki", "value": 24, "unit": "nM"}]}]}
